# scFv variants of Ab-95 (light chain) against a SARS-CoV-2 spike peptide

Source: Engelhart et al. 2022 (doi:10.1038/s41597-022-01779-4), MIT Lincoln Laboratory and A-Alpha Bio; data file from the FLAb repository.

All variants were tested on one target, the spike HR2 peptide PDVDLGDISGINAS (SARS-CoV-2).

Each scFv is VH, the linker GGGGSGGGGSGGGGS, VL, as in the parent Ab-95, and differs from it in the CDRs of the light chain only.
VH: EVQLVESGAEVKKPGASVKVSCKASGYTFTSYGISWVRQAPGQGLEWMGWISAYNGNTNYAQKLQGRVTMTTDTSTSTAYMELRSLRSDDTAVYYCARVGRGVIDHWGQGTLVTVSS
VL: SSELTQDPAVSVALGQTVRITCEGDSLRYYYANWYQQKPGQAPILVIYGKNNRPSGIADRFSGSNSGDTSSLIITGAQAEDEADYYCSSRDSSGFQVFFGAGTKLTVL

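The parent was found by panning a naive human phage display library on the peptide. Library AAYL52 holds single substitutions and randomly drawn double and triple substitutions in the CDRs. The assay is AlphaSeq: two haploid yeast populations carry antibody and antigen on their surface. The frequency of each diploid, read from paired DNA barcodes, reflects how well the two displayed proteins bind. Each replicate has its own calibration line, from reference interactions of the BCL2 family. Each pool was mated in three replicate cultures.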

Each variant is given by its three light chain CDRs, as the data file delimits them; those of the parent are EGDSLRYYYAN, GKNNRPS, SSRDSSGFQVF.
All variants listed here change N33 of the VL, counted from its first residue.
Values are apparent Kd, the geometric mean of the replicates that gave a signal; lower means stronger binding.
Where no diploid with the target was found in any replicate, the entry reads "nd": below detection, most likely a poor binder, though not proof of it.
As a blank, each scFv also met three strains without target: over library AAYL52, 28% of these pairings were detected, typically at 8.2 µM and seldom below 800 nM. For each scFv, signals with the empty controls are counted beside the result.
In this assay the parent's reference entry averaged 200 nM; its copy inside this library read 180 nM.

For EFDSLRYYYAP / MKNNRPS / SSRDSSGFQVF, the assay gave 270 µM (1 of 3 replicates; controls 2 of 9). For EGDSKPYYYAI / GKNNRPS / SSRDSSGFQVF, the assay gave 13 µM (3 of 3 replicates; controls 3 of 9). With EGDSLREYYAM / VKNNRPS / SSRDSSGFQVF the result was 17 µM (1 of 3 replicates; controls 4 of 9). Variant EGDSLMYYYAV / GKNNRPS / SSCDSSGFQVF gave nd (0 of 3 replicates; controls 3 of 9). For EEDSLRYYYAA / GKNNAPS / SSRDSSGFQVF, the assay gave 7.0 µM (2 of 3 replicates; controls 2 of 9). Variant EGDSLRYYYEY / NKNNRPS / SSRDSSGFQVF showed 4.4 µM (1 of 3 replicates; controls 1 of 9). Variant EGDSLRYMYAW / GKNNRPS / SSRDSSGFQVF showed 3.2 µM (3 of 3 replicates; controls 5 of 9).

Variant EGDSLRYAYAP / GKNNRPS / SSRLSSGFQVF gave 94 µM (2 of 3 replicates; controls 3 of 9). With EVDSLRYYYAR / GKNNRPS / SSRDSSGGQVF the result was 140 µM (2 of 3 replicates; controls 3 of 9). Variant YGDSLRYYYAC / GKNNRPS / SSRDSSGFGVF showed 10 µM (2 of 3 replicates; controls 1 of 9). With EGDSLRYYYAK / QKNNRPS / SSRDSSGFQVF the result was 17 µM (2 of 3 replicates; controls 2 of 9). For EGDSLRCYYAF / GKNNRPS / SWRDSSGFQVF, the assay gave 3.7 µM (2 of 3 replicates; controls 3 of 9). With EVDRLRYYYAW / GKNNRPS / SSRDSSGFQVF the result was 8.7 µM (2 of 3 replicates; controls 2 of 9). Variant EGDSLRYYYAH / GKNNRPS / SSRDSSGFQVF showed nd (0 of 3 replicates; controls 3 of 9).

With EGMSLRYYYAD / GKNNRPS / FSRDSSGFQVF the result was nd (0 of 3 replicates; controls 1 of 9). Variant EGDSLRYYYAR / GKNNRAS / SSRDESGFQVF gave 4.5 µM (1 of 3 replicates; controls 5 of 9). Variant EGDSLRTYYAA / GKNNCPS / SSRDSSGFQVF gave 1.9 µM (1 of 3 replicates; controls 1 of 9). Variant EGDSMRYYYAA / GKNNRPS / SSRDSSGFQAF showed 37 µM (1 of 3 replicates; controls 3 of 9). With EGDSLWYYYAG / GKNDRPS / SSRDSSGFQVF the result was 110 µM (3 of 3 replicates; controls 3 of 9). Variant EGDSLRMYYAY / GKNNRPS / SSRHSSGFQVF gave 120 µM (1 of 3 replicates; controls 3 of 9). With EGDSLRYYYAV / YKNNRPS / SERDSSGFQVF the result was 1.8 µM (1 of 3 replicates; controls 2 of 9).

Variant EGDSKRYYYAC / GKNNIPS / SSRDSSGFQVF showed nd (0 of 3 replicates; controls 5 of 9). With EGDSLRYYYSY / GKNNRPS / SSRDSSFFQVF the result was 1.6 µM (1 of 3 replicates; controls 3 of 9). With EQDSLRYYYAI / GKNNRPS / SSRCSSGFQVF the result was 1.9 µM (1 of 3 replicates; controls 3 of 9). Variant EGDSLRYYYAT / GKNNRPS / SQRDSSGFMVF showed nd (0 of 3 replicates; controls 0 of 9). With EGDSDRYYYAC / GKNNRPS / SSRDSSGYQVF the result was 7.0 µM (2 of 3 replicates; controls 5 of 9). With EGDSLRYYYAM / GKNNGPS / SSRDTSGFQVF the result was nd (0 of 3 replicates; controls 0 of 9). Variant EGDWLRYYYAW / GKNNRPS / SSQDSSGFQVF gave 37 µM (2 of 3 replicates; controls 1 of 9).

Variant EGDSLRYYYAY / GKNNRPS / SSRDSSGFQCF gave 86 µM (1 of 3 replicates; controls 3 of 9). Variant EGDSLRYYYAW / IKNNRPY / SSRDSSGFQVF gave 130 µM (2 of 3 replicates; controls 2 of 9). For EGDSLRYYYAA / GKNNRPQ / SSRDSSGDQVF, the assay gave 4.6 µM (3 of 3 replicates; controls 1 of 9). With EPDSLRYYPAP / GKNNRPS / SSRDSSGFQVF the result was 59 µM (2 of 3 replicates; controls 2 of 9). Variant EGDSLRYYYAD / GKNNRPD / SSRDSSGFDVF gave 4.4 µM (1 of 3 replicates; controls 2 of 9). With EGDSLRYYYYQ / GKNNRPS / SSRDSFGFQVF the result was 13 µM (2 of 3 replicates; controls 2 of 9). With EGDSIRYYYAD / GKNNRPM / SSRDSSGFQVF the result was 3.6 µM (2 of 3 replicates; controls 1 of 9).

Variant EGDSLRYYYAW / GKNNRPS / SSRDSSRFQVF gave nd (0 of 3 replicates; controls 2 of 9). Variant EGDSLRYYFAI / GKNNRPS / SSRDSSGFQDF gave 85 µM (2 of 3 replicates; controls 6 of 9). With EGDSLCYYYAR / GKNNRPS / SSRDSSGFQVF the result was 100 µM (3 of 3 replicates; controls 4 of 9). Variant EGDSLRYYYLF / GKNNRPS / SSRDSSGFQVS showed 19 µM (1 of 3 replicates; controls 2 of 9). With EGDSMNYYYAC / GKNNRPS / SSRDSSGFQVF the result was 8.4 µM (2 of 3 replicates; controls 2 of 9). Variant EGISLRYYYAS / NKNNRPS / SSRDSSGFQVF showed 7.4 µM (1 of 3 replicates; controls 1 of 9). Variant EGISLRNYYAK / GKNNRPS / SSRDSSGFQVF showed 3.1 µM (1 of 3 replicates; controls 0 of 9).

With EGLSLRYYYAR / GKNNRPS / SSRDSSTFQVF the result was 260 nM (1 of 3 replicates; controls 0 of 9). Variant EGDSLRYNYAF / PKNNRPS / SSRDSSGFQVF gave 4.7 µM (2 of 3 replicates; controls 3 of 9). For EGDSLLYYYAS / GKNRRPS / SSRDSSGFQVF, the assay gave 4.1 µM (2 of 3 replicates; controls 3 of 9). For EGDSWRYYYAE / GKNNRPS / SSRLSSGFQVF, the assay gave nd (0 of 3 replicates; controls 0 of 9).

The opening 3 entries, copied out:

{"CDR-L1": "EFDSLRYYYAP", "CDR-L2": "MKNNRPS", "CDR-L3": "SSRDSSGFQVF", "Kd": "270 µM", "replicates with signal": "1 of 3", "signal with controls": "2 of 9"}
{"CDR-L1": "EGDSKPYYYAI", "CDR-L2": "GKNNRPS", "CDR-L3": "SSRDSSGFQVF", "Kd": "13 µM", "replicates with signal": "3 of 3", "signal with controls": "3 of 9"}
{"CDR-L1": "EGDSLREYYAM", "CDR-L2": "VKNNRPS", "CDR-L3": "SSRDSSGFQVF", "Kd": "17 µM", "replicates with signal": "1 of 3", "signal with controls": "4 of 9"}